Calls of active or inactive are those of the source. The calls are words filed in the database; no cut-off is given here.

Data on 1 compound can be found in ChEMBL document CHEMBL2417394, “Exquisite selectivity for human toll-like receptor 8 in substituted furo[2,3-c]quinolines” (J Med Chem, 2013).

Assay [1] concerns the target T1, Toll-like receptor 8 (Homo sapiens) (UniProt Q9NR97).
T1 sequence (whole entry): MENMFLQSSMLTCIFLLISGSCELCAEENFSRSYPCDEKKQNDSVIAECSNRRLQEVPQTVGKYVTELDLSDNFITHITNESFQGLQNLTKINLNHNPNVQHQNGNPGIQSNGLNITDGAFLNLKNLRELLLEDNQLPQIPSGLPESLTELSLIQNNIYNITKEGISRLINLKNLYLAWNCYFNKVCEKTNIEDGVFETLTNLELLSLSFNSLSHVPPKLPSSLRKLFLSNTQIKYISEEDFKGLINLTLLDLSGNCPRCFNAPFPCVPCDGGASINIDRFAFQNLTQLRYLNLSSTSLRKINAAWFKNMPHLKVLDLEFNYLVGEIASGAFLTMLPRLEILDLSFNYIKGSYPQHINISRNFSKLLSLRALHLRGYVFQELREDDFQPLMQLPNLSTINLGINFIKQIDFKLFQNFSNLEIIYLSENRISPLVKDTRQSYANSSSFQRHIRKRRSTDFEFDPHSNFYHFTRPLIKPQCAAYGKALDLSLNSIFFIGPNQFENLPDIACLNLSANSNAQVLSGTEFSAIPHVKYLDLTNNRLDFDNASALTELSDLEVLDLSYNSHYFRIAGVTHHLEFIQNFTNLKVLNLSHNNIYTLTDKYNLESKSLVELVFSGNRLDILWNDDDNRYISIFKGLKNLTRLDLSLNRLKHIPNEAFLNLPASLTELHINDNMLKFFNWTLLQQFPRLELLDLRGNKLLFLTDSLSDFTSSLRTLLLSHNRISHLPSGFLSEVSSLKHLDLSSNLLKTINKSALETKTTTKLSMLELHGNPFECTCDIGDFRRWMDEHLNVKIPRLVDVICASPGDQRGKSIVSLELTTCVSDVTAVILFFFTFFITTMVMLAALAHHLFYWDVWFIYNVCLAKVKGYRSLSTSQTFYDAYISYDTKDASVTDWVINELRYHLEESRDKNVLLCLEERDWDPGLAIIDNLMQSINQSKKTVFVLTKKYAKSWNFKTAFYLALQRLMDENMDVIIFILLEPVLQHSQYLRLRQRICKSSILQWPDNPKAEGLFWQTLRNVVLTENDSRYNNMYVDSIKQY
Briefly: Agonist activity at human TLR8 in human whole blood assessed as CD69 upregulation after 16.5 hrs by flow cytometry. Background: A flow cytometer gives signals particle by particle.

The target in assay [2] is T1, Toll-like receptor 8 (Homo sapiens). Briefly: Agonist activity at human TLR8 in human whole blood assessed as induction of IL-1beta production.
For assay [3] the target is unchanged. Briefly: Agonist activity at TLR8 in human PBMC assessed as increase of MIP1beta level after 12 hrs. An outline of the steps: (§1)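 Fresh human PBMCs isolated on Ficoll-Hypaque gradients, plated at 10⁵ cells/well and stimulated for 12 h with graded concentrations of compound. Supernatants were collected by centrifugation and assayed in triplicate with a magnetic bead-based multiplexed cytokine/chemokine bead array. Read on a MAGPIX instrument; intra-assay CV 4–8%.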

Assay [4] has the same target. Briefly: Agonist activity at human TLR8 in human whole blood assessed as induction of TNFalpha production.
For assay [5] the target is unchanged. Briefly: Modulation of human TLR8 expressed in HEK293 cells co-transfected with MD2 and sAP assessed as induction of NF-kappaB activity by reporter gene assay. The assay is classed as cell-based. Background: In a reporter assay the amount or activity of a reporter protein is the signal.
Assay [6] has the same target. Briefly: Agonist activity at human TLR8 in human whole blood assessed as CD69 upregulation after 16.5 hrs by flow cytometry in absence of natural killer lymphocytes.
The target is the same in assay [7]. Briefly: Agonist activity at TLR8 in human PBMC assessed as increase of G-CSF level after 12 hrs. An outline of the steps: as §1
For assay [8] the target is unchanged. Briefly: Agonist activity at TLR8 in human PBMC assessed as increase of MIP1alpha level after 12 hrs. A digest of the protocol: as §1
Assay [9] shares this target. Briefly: Agonist activity at human TLR8 in human whole blood assessed as induction of IL-12 production.
For assay [10] the target is unchanged. Briefly: Agonist activity at human TLR8 in human whole blood assessed as induction of IL-18 production.
For assay [11] the target is unchanged. Briefly: Agonist activity at human TLR8 in human whole blood assessed as induction of IL-8 production.
For assay [12] the target is unchanged. Briefly: Agonist activity at TLR8 in human PBMC assessed as increase of GRO level after 12 hrs. An outline of the steps: as §1
Assay [13] has the same target. Briefly: Agonist activity at human TLR8 in human whole blood assessed as induction of IL-6 production.

Regarding `CCCCc1cc2c(o1)c(N)nc1ccccc12`, the outcome in assay [1], in [3], in assay [5], in assay [7], in [8] and in [9] was Active. Also, the outcome in assay [10] and in assay [12] was Active. Moreover, the Activity entry in assay [2], in assay [4], in [11] and in assay [13] was “Dose-dependent effect” in each case. In addition, in [6], the result was inactive.
